Source: PubChem BioAssay
The list is not random: actives were taken first. Their share in the collection is about 1.5%.
miR-122 sensor – inhibitors of miR-122 in Huh7 cells. activation (reporter increase), % at 12.5 µM. hit rate 0.3% among 340,000. Huh7 miR-122 Renilla luciferase sensor, 48 h; neutral wells = 0, positive control = 100;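 active = mean replicate activation score at least 90 and every replicate individually at or above 90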;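 also: higher luciferase means less miR-122 activity so hits act as miR-122 inhibitors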
FN deposition inh – fibronectin deposition inhibition | hit rate 0.086% among 350,000 | AH1F fibroblasts, Alexa488-fibronectin deposition fluorescence, overnight | inhibition, % at 12.6 µM | AID 743247;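 active = mean inhibition across replicates of 30% or more, regardless of how many single replicates reach that level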;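 also: positive control wells lacked labelled fibronectin entirely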
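Schedule: 1 h cell adhesion before compound, then overnight fibronectin incubation; test system: AH1F fibroblast monolayer depositing Alexa488-labelled fibronectin into matrix; quantity: 10000 AH1F cells per well; probe or stimulus: fluorescent fibronectin at 24 nM final; signal: fluorescence, ex 485 nm, em 525 nm; evaluation: percent inhibition as loss of matrix-bound fibronectin fluorescence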
Env fusion inh – inhibitors of HIV Env-mediated cell fusion. inhibition, % at 12.3 µM. hit rate 1.1% among 360,000. HeLa-JRFL Env/CEM21 cell fusion, luciferase;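 active = mean replicate inhibition score of at least 50 and every replicate individually at or above 50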;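 also: 0% = plate neutral controls and 100% = maraviroc near 300 nM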
Yeast UUG start – modulators of start codon recognition fidelity in yeast; AID 602363; activity score, % at 18.7 µM; S. cerevisiae UUG-firefly luciferase reporter, luminescence/redox ratio; actives 0.13% (n = 350,000);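 active = replicate mean at a twofold rise or more, about +100% in these data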;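 note: firefly luciferase made from a UUG start codon reports start codon fidelity; reporter light over untreated wells divided by growth signal over untreated wells; some hits fall short of that in this replicate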
PGC1a acetyl inh – modulators of PGC1a acetylation; U2OS PGC1a acetylation, AlphaScreen anti-acetyl-lysine; with virally co-expressed GCN5 acetyltransferase; inhibition, % at 15.6 µM; hit rate 0.17% among 350,000;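 active = every replicate shows inhibition of at least 40%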;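 also: 0% = neutral control wells and 100% = positive control wells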
Cneo AK release – Cryptococcus neoformans lysis via adenylate kinase release. lysis activity, % at 15 µM. C. neoformans lysis, adenylate kinase release luminescence, 4 h; normalised: neutral wells 0, clomiphene wells 100. hit rate 0.2% among 360,000;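 active = mean lysis activity across replicates of at least 80%, whatever share of replicates individually reach that level; inactive = mean lysis activity below 80%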
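Assay system: log-phase C. neoformans yeast / Quantity: yeast cell density of 5 × 10^6 cells/mL / Medium: fresh YPD growth medium / Compound: single dose / Timing: static 4 h at 37 °C with compound, 1 h detection / Measured by: adenylate kinase release luminescence / Read-out: lysis from increased AK signal / Benchmarks: Clomiphene as positive lysis control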
An asterisk follows results filed as active; nt = not tested or not shown; [ ] = another dose, or the depositor's remark.

SMILES | miR-122 sensor | FN deposition inh | Env fusion inh | Yeast UUG start | PGC1a acetyl inh | Cneo AK release
COc1ccc(OCC(=O)Nc2ccc(N3CCN(C(=O)c4ccccc4)CC3)c(Cl)c2)cc1 | nt | nt | 61.9* | -5.2 | nt | 75.1
CCOc1ccc(C(=O)Nc2ccccc2N2CCOCC2)cc1 | 46.2 | nt | nt | -3.7 | -3.8 | 2.2
COc1ccc(OCC(=O)Nc2ccccc2N2CCN(C)CC2)cc1 | -1.2 | 0.0 | 14.8 | -12.1 | nt | 4.2
CCOc1ccc(C(=O)C2CCN(CC(=O)Nc3ccccc3N3CCOCC3)CC2)cc1 | -5.0 | nt | 69.7* | 9.4 | -17.9 | 0.5
COc1ccc(OCC(=O)Nc2ccccc2N2CCCCC2)cc1 | -4.7 | nt | 74.2* | 8.9 | -5.4 | -10.0
CCC1CCCN1Cn1cnc2c([nH]c3ccc(Cl)cc32)c1=O (stereo not given) | -3.0 | 1.7 | -3.2 | -4.8 | -5.1 | 5.3
CC(=O)c1cccc(OCC(=O)Nc2ccccc2N2CCOCC2)c1 | 93.3* | -1.4 | nt | -9.7 | -4.5 | -2.6
COc1cccc(C(=O)NC(=S)Nc2ccccc2N2CCOCC2)c1 | 4.0 | nt | nt | -21.9 | -0.3 | 35.6
COc1cc(C(=O)NC(=S)Nc2ccccc2N2CCOCC2)cc(OC)c1OC | nt | nt | 30.1 | -22.2 | nt | 80.3*
CC(=O)c1cccc(OCC(=O)Nc2cc(S(=O)(=O)N3CCOCC3)ccc2N2CCCC2)c1 | nt | 0.9 | -14.2 | nt | nt | nt
CN1CCN(C(=O)C[C@@H]2CC[C@@H]3[C@H](COC[C@@H](O)CN3C(=O)Nc3ccc(Cl)cc3)O2)CC1 | -0.8[16.7 µM] | 10.3 | nt | 3.9 | -1.7 | -2.3
Cc1ccc(S(=O)(=O)N(C)C[C@@H]2Oc3ccc(NC(=O)CCCCCC(=O)Nc4ccccc4N)cc3CC(=O)N([C@@H](C)CO)C[C@@H]2C)cc1 | 4.8[16.7 µM] | nt | 23.8[16.7 µM] | -5.1 | -8.6 | 1.1
CC(C)(C)c1cc(Cl)c(O)c(NC(=S)NC(=O)c2cccnc2)c1 | nt | 30.3* | 10.0 | nt | nt | nt
O=C1CC(c2ccc(O)cc2)Oc2cc(O)cc(O)c21 (stereo not given) | -4.8 | 2.1 | -5.2 | -4.9 | -2.0 | 0.3
CC1CC(=O)c2c(cc3c(-c4c(O)cc(O)c5c(O)c6c(cc45)OC(C)CC6=O)c(O)cc(O)c3c2O)O1 (stereo not given) | -5.7 | nt | nt | -7.9 | 63.4* | -9.1
C[C@@H]1CN([C@@H](C)CO)C(=O)c2cc(C#CCC3CCCC3)cnc2O[C@H]1CN(C)C(=O)CN(C)C | -1.1[16.7 µM] | -7.2 | 0.8[16.7 µM] | 43.4 | 1.8 | -2.8
O=[N+]([O-])c1cc(-c2ncccn2)c([N+](=O)[O-])s1 | -0.4 | -4.1 | -60.0 | -18.9 | 60.7* | -3.0
O=C(Nc1ncccn1)c1cc([N+](=O)[O-])cc([N+](=O)[O-])c1 | nt | -6.3 | -22.9 | nt | nt | nt
COCC(=O)N(C)C[C@@H]1Oc2ncc(C#CCC3CCCC3)cc2C(=O)N([C@@H](C)CO)C[C@H]1C | 13.9[16.7 µM] | 2.5 | 18.3[16.7 µM] | 17.8 | -1.2 | 103.2*
COCC(=O)N(C)C[C@H]1Oc2ncc(Br)cc2C(=O)N([C@H](C)CO)C[C@H]1C | 7.9[16.7 µM] | nt | 79.9*[16.7 µM] | 4.2 | 6.7 | -5.5
COc1cccc(OC)c1C(=O)OCC(=O)Nc1cccnc1Cl | nt | nt | 15.9 | nt | -7.5 | nt
CCCC(O)(CCN(C)C)c1ccc(OC)cc1 (stereo not given) | -4.9 | nt | nt | -17.4 | -6.9 | 0.6
CC(=O)Nc1cc(S(=O)(=O)Nc2ccc(C)cc2)c(C)cc1C | 128.6* | nt | nt | -5.5 | 2.6 | -2.3
Cc1ccc(OC(C)C(=O)Nc2ccc(C)c(S(=O)(=O)Nc3ccc(C)cc3C)c2)cc1 (stereo not given) | 195.7* | -4.2 | 12.8 | nt | nt | nt
Cc1ccc(OC(C)C(=O)Nc2ccncc2)cc1 (stereo not given) | -5.3 | 9.8 | 18.2 | -12.9 | 1.6 | 0.1

5 entries from above, sorted by their value in miR-122 sensor, lowest first.
Molecule,miR-122 sensor,Env fusion inh,Yeast UUG start,PGC1a acetyl inh
Cc1ccc(OC(C)C(=O)Nc2ccncc2)cc1 (stereo not given),-5.3,18.2,-12.9,1.6
CCOc1ccc(C(=O)C2CCN(CC(=O)Nc3ccccc3N3CCOCC3)CC2)cc1,-5.0,69.7*,9.4,-17.9
COc1cccc(C(=O)NC(=S)Nc2ccccc2N2CCOCC2)c1,4.0,nt,-21.9,-0.3
CCOc1ccc(C(=O)Nc2ccccc2N2CCOCC2)cc1,46.2,nt,-3.7,-3.8
CC(=O)c1cccc(OCC(=O)Nc2ccccc2N2CCOCC2)c1,93.3*,nt,-9.7,-4.5

(further entries)
SMILES | miR-122 sensor | FN deposition inh | Env fusion inh | Yeast UUG start | PGC1a acetyl inh | Cneo AK release
O=C(C[C@@H]1C[C@H]2c3cc(NC(=O)C4CCC4)ccc3O[C@H]2[C@H](CO)O1)NCC(F)(F)F | -1.3[16.7 µM] | -6.3 | 92.9*[16.7 µM] | 12.7 | -1.8 | -3.9
COCCNC(=O)C[C@@H]1C[C@@H]2c3cc(NC(=O)C4CCC4)ccc3O[C@@H]2[C@@H](CO)O1 | 1.9[16.7 µM] | nt | -4.6[16.7 µM] | -6.5 | -2.1 | -16.5
COCCNC(=O)C[C@@H]1C[C@H]2c3cc(NC(=O)C4CCC4)ccc3O[C@H]2[C@@H](CO)O1 | 13.8[16.7 µM] | nt | 20.0[16.7 µM] | 13.2 | -7.9 | 84.4*
O=C(C[C@H]1C[C@H]2c3cc(NC(=O)C4CCC4)ccc3O[C@H]2[C@@H](CO)O1)NCC(F)(F)F | 2.7[16.7 µM] | -0.2 | 56.5*[16.7 µM] | 3.1 | 0.2 | -7.4
CO[C@@H]1CC[C@H]2CCN(C)C(=O)CCCN(C)C(=O)c3cc(C#N)ccc3OC[C@H]1O2 | nt | -3.9 | 16.4[16.7 µM] | nt | nt | 1.3
O=C(c1cccc(F)c1)N1C[C@H]2[C@@H](c3ccccc31)[C@@H](CO)N2C(=O)c1ccc(F)cc1 | 191.7*[16.7 µM] | nt | nt | 12.7 | -0.8 | -4.1
O=C(c1cccnc1)N1C[C@H]2[C@@H](c3ccccc31)[C@@H](CO)N2C(=O)Nc1ccc(F)cc1 | 30.0[16.7 µM] | nt | nt | 20.4 | 1.6 | 117.6*
O=C(c1cccnc1)N1C[C@H]2[C@@H](c3ccccc31)[C@H](CO)N2CC1CCCC1 | 10.0[16.7 µM] | 32.2* | nt | 53.1 | -2.3 | -4.8
O=C(Nc1ccccc1)N1C[C@H]2[C@@H](c3ccccc31)[C@@H](CO)N2C(=O)c1ccccn1 | 132.1*[16.7 µM] | nt | nt | 7.3 | 3.2 | 8.5
Cc1cccc(Nc2nc(N)c([N+](=O)[O-])c(N3CCC(C)CC3)n2)c1 | 13.0 | 5.4 | nt | -15.3 | nt | -0.1
COCCNC(=O)c1c[nH]c2ccc(S(=O)(=O)Nc3ccc(F)cc3F)cc2c1=O | 12.2 | -2.0 | 1.6 | -12.6 | 12.7 | 1.0
O=C(NC1CCCC1)C1C(c2ccccc2)=Nc2ccccc2N1C(=O)c1cc(Cl)cc(Cl)c1 (stereo not given) | nt | -1.3 | 23.3 | nt | nt | nt
Cc1ccc(O)c(NC(=O)c2noc(C(C)C)c2[N+](=O)[O-])c1 | nt | 24.4 | 0.8 | nt | 1.7 | nt
COC(=O)C(NC(=O)c1ccco1)(Nc1nc(C2CC2)cs1)C(F)(F)F (stereo not given) | 0.9 | -0.5 | -73.0 | -11.9 | -31.5 | 3.7
Cn1ccc(C(=O)OCC(=O)c2ccccc2)n1 | -1.6 | nt | -42.8 | -6.2 | 1.2 | -0.2
O=C(c1ccc(F)cc1)N1C[C@H]2[C@@H](c3ccccc31)[C@H](CO)N2C(=O)c1ccccc1 | 0.0[16.7 µM] | -4.8 | nt | 11.0 | -3.3 | -3.2
O=C(c1ccc(F)cc1)N1C[C@H]2[C@@H](c3ccccc31)[C@@H](CO)N2C(=O)c1ccc(F)cc1 | 364.1*[16.7 µM] | nt | nt | 7.1 | 5.2 | 9.3
Cc1ccc(C)c(NC(=O)CCc2nnc3ccc(N4CCCC4)nn23)c1 | -1.6 | 2.1 | 0.4 | -1.3 | 2.2 | 0.2
Cc1ccc(Cl)cc1NC1=C/C(=N\S(=O)(=O)c2cccs2)c2ccccc2C1=O | 6.7 | nt | 112.3* | 7.0 | 8.0 | 1.0

In another format: entries from further up.
> O=C(c1ccc(F)cc1)N1C[C@H]2[C@@H](c3ccccc31)[C@H](CO)N2C(=O)c1ccccc1
  miR-122 sensor = 0.0[16.7 µM] | FN deposition inh = -4.8 | Env fusion inh = nt | Yeast UUG start = 11.0 | PGC1a acetyl inh = -3.3 | Cneo AK release = -3.2

> Cc1ccc(Cl)cc1NC1=C/C(=N\S(=O)(=O)c2cccs2)c2ccccc2C1=O
  miR-122 sensor = 6.7 | FN deposition inh = nt | Env fusion inh = 112.3* | Yeast UUG start = 7.0 | PGC1a acetyl inh = 8.0 | Cneo AK release = 1.0
